The source of these data is ChEMBL document CHEMBL1157172, “Rational design, synthesis, and in vivo evaluation of the antileukemic activity of six new alkylating steroidal esters” (Bioorg Med Chem, 2008).

In one series the test system is Mus musculus. The experiment in a line: Acute toxicity in ip dosed BALB/c mouse after 30 days. Type of series: organism-based. The conditions noted are these: in vivo, 720 h.
The test system of series [1] is P388. The experiment in a line: Antitumor activity in BDF1 mouse bearing P388 cells assessed as mean survival days at 5 mg/kg/day, ip. To be noted: route intraperitoneal.
For series [2], the system named is P388. The experiment in a line: Increase in median life span in BDF1 mouse bearing P388 cells at 5 mg/kg/day, ip relative to corn oil. To be noted: route intraperitoneal.
The test system of series [3] is L1210. The experiment in a line: Antitumor activity in BDF1 mouse L1210 cells assessed as mean survival days at 5 mg/kg/day, ip. To be noted: route intraperitoneal.
The test system of series [4] is L1210. The experiment in a line: Increase in median life span in BDF1 mouse L1210 cells at 5 mg/kg/day, ip relative to corn oil. The conditions noted are these: route intraperitoneal.

The compound `Cc1ccc(C(=O)O)cc1N(CCCl)CCCl` came in with an LD10 in the series with Mus musculus of 10 mg/kg. The compound also yielded a 50% lethal dose (LD50) in the series with Mus musculus of 18 mg/kg. Moreover, the results for the Survival in the series on P388 [1] and with L1210 [3] were 13.7 days and 13.9 days, respectively. Moreover, the Activity was 144% in the series on P388 [2] and 129% in the series on L1210 [4].
`O=C(O)Cc1ccc(N(CCCl)CCCl)cc1` returned an LD10 in the series on Mus musculus of 10 mg/kg. This compound also yielded a median lethal dose (LD50) with Mus musculus of 20 mg/kg. Further, the values for the Survival in the series on P388 [1] and with L1210 [3] were 10.7 days and 12.4 days, respectively. For the same compound, the Activity came to 113% in the series on P388 [2] and 115% in the series on L1210 [4].
